Assays:
V79 [1] = assay: Antiproliferative activity against Chinese hamster V79 cells assessed as reduction in cell number after 72 hrs; assay type: cell-based, Cricetulus griseus
V79 [2] = assay: Antiproliferative activity against Chinese hamster V79 cells transfected with Escherichia coli nitroreductase nfsB assessed as reduction in cell number after 72 hrs
V79 [3] = assay: Ratio of IC50 for Chinese hamster V79 cells to IC50 for Chinese hamster V79 cells transfected with Escherichia coli nitroreductase nfsB
SK-OV-3 [4] = assay: Antiproliferative activity against human SKOV3 cells transfected with Escherichia coli nitroreductase nfsB assessed as reduction in cell number after 18 hrs
SK-OV-3 [5] = assay: Ratio of IC50 for human SKOV3 cells to IC50 for human SKOV3 cells transfected with Escherichia coli nitroreductase nfsB

Row | Compound | IC50 (V79 [1]) [µM] | IC50 (V79 [2]) [µM] | Ratio IC50 (V79 [3]) | IC50 (SK-OV-3 [4]) [µM] | Ratio IC50 (SK-OV-3 [5])
1 | O=[N+]([O-])c1ccc(COS(=O)N(CCCl)CCCl)cc1 (configuration not stated) | 62 | 2.9 |  |  | 
2 | O=C(OCc1ccc([N+](=O)[O-])cc1)N(CCCl)CCCl | 45 | 1.6 | 28 | 16 | > 18

Reference: ChEMBL document CHEMBL2157983 (Bioorg Med Chem Lett, 2011)
